Assay [1] deals with T1, GST–β-DG (full-length β-dystroglycan fused to GST) (human, UniProt Q14118 654-895).
T1 chain: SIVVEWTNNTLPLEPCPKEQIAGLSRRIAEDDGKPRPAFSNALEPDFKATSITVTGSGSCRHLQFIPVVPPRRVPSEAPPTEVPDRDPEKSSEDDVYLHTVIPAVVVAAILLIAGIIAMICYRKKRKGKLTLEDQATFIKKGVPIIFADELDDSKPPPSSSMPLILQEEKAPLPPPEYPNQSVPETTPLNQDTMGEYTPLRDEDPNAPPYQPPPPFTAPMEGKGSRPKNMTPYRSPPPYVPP
Put plainly: SPR. (SPR reads the build-up and loss of mass on a sensor chip optically.)

Assay [2] deals with T2, GST–TM (transmembrane domain of β-DG fused to GST) (human).
T2 chain: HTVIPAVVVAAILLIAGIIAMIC
Put plainly: SPR.

B1: GST–emerin (full-length emerin fused to GST) (natural protein)
chain: MDNYADLSDTELTTLLRRYNIPHGPVVGSTRRLYEKKIFEYETQRRRLSPPSSSAASSYSFSDLNSTRGDADMYDLPKKEDALLYQSKGYNDDYYEESYFTTRTYGEPESAGPSRAVRQSVTSFPDADAFHHQVHDDDLLSSSEEECKDRERPMYGRDSAYQSITHYRPVSASRSSLDLSYYPTSSSTSFMSSSSSSSSWLTRRAIRPENRAPGAGLGQDRQVPLWGQLLLFLVFVIVLFFIYHFMQAEEGNPF
What is called koff is a measure of how fast the partners let go of each other. Low readings indicate slow dissociation, high ones fast dissociation. With B1, the koff in assay [1] came to 0.00205 s⁻¹; in assay [2], 0.00215 s⁻¹.

Source of the values: PMC7504044 (2020).
